# Values of other authors as cited in patent publication US20240351965A1, “Synthesis and Evaluation of Novel (4-Hydroxyphenyl) Substituted Carbocycles as Potent and Selective Estrogen Receptor Beta Agonists” (Marquette University, priority 2021, published 2024).
# Test system: ovariectomized mouse model for menopause
# Details: long-term oral dosing 0.5 mg/Kg; cited from earlier work
structure (smiles),measurement,value
OC[C@H]1CC[C@H](c2ccc(O)cc2)CC1,drug-induced vasodilation,mitigates drug-induced vasodilation
same,memory consolidation,has shown efficacy for memory consolidation
